From ChEMBL document CHEMBL1137770, “Biological activity of endomorphin and [Dmt1]endomorphin analogs with six-membered proline surrogates in position 2” (Bioorg Med Chem, 2009)

By UniProt entry, the sequences of proteins in these tests, tags left out.
UniProt P33535, whole entry, looked up: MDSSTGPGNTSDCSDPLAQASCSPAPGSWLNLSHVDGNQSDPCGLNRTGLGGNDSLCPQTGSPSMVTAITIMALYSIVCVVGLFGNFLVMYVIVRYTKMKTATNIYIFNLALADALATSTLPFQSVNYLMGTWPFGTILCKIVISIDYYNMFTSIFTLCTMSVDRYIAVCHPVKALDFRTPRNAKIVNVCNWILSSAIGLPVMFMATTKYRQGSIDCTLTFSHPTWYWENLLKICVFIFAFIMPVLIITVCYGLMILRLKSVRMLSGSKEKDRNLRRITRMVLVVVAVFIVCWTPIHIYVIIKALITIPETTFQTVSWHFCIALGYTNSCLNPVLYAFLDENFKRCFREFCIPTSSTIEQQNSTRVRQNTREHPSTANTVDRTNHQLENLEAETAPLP
UniProt P33533, whole entry, looked up: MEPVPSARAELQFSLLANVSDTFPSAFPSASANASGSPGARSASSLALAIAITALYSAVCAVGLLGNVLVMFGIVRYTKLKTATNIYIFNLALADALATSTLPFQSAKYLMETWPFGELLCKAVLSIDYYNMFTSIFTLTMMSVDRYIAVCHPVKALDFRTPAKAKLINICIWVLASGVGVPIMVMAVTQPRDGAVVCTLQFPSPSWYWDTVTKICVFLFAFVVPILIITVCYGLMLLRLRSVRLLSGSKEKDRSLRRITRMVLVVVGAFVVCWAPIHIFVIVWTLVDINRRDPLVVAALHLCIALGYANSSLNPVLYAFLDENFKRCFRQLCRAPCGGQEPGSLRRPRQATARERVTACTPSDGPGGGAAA

Columns and labels:
Mu-type opioid receptor = Mu-type opioid receptor (Rattus norvegicus, UniProt P33535); assay: Displacement of [3H]DAMGO from mu opioid receptor in Wistar rat brain membrane; assay type: cell membranes; settings: strain Wistar
[1] = target: Delta-type opioid receptor (Rattus norvegicus, UniProt P33533); assay: Displacement of [3H][Ile5,6]deltorphin-2 from delta opioid receptor in Wistar rat brain membrane; settings: strain Wistar

NC(=O)[C@H](Cc1ccccc1)NC(=O)[C@H](Cc1ccccc1)N(C=O)C1CCN(C(=O)[C@@H](N)Cc2ccc(O)cc2)CC1 was tested, and the IC50 (Mu-type opioid receptor) was 360 nM and the IC50 [1] was > 1000 nM.
